Experiment [1] has as its target T1, Advanced glycosylation end product-specific receptor (Homo sapiens, UniProt Q15109). Put plainly: Binding affinity to biotinylated human RAGE by surface plasmon resonance analysis.
In experiment [2] the target is T1, Advanced glycosylation end product-specific receptor. Put plainly: Inhibition of biotinylated human RAGE assessed as bound amyloid beta level after 60 mins by ELISA. In outline: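 Biotinylated human RAGE (1 µg), oligomerised Aβ1-42 (pre-incubated in PBS for 24 h at 4 °C) and compound were incubated in TBS-T with 2.5% BSA on streptavidin plates for 60 min at ambient temperature. Bound Aβ was detected with HRP-4G8 (1:1000, 60 min), developed with TMB and stopped with sulfuric acid, then read at 450 nm. IC50 was fitted from serial dilutions.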

Sequences of proteins named here, by UniProt entry; tags and fusion partners are left off. A change or cut given only in a name is not applied to a line headed by its entry.
UniProt Q15109: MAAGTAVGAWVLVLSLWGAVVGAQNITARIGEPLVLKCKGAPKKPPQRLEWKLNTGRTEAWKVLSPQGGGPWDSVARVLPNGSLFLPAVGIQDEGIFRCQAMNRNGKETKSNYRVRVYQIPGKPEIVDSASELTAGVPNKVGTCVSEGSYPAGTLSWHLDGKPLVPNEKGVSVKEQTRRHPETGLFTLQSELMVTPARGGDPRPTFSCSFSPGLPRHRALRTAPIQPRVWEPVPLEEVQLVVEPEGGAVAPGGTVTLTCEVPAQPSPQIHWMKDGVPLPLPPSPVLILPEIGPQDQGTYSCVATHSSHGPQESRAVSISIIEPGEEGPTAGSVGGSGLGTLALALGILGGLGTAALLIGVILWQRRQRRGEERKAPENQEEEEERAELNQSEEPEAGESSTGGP

One may read the Kd as the equilibrium constant for the complex coming apart. High values mean a looser complex, low ones a tighter complex. A word on the IC50: it is the point on the concentration scale where inhibition reaches its midpoint. For `CCCCOc1cc(OCCCN(CC)CC)ccc1NC(=O)c1cc(-c2ccc(Oc3ccc(F)cc3)cc2)nn1C`, binding in experiment [1] was characterised by a dissociation constant (Kd) of 43.4 µM. Moreover, in experiment [2], the IC50 stood at 1.9 µM.

For the origin of these results see ChEMBL document CHEMBL3232933, “Pyrazole-5-carboxamides, novel inhibitors of receptor for advanced glycation end products (RAGE)” (Eur J Med Chem, 2014).
